## Ab-14 heavy chain CDR variants: yeast mating affinities

The measurements come from Engelhart et al. 2022 (doi:10.1038/s41597-022-01779-4) through the FLAb antibody collection.

Antigen: PDVDLGDISGINAS, a 14-residue peptide of the SARS-CoV-2 spike HR2 region.

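The starting antibody came from a phage panning campaign against this peptide. The library (AAYL49) carries one to three amino acid substitutions per variant, with no insertions or deletions. In AlphaSeq, yeast of one mating type display the scFv and yeast of the other type display the target. Mating (16 h, 30 °C) was followed by selection of diploids and sequencing of their barcodes. Scores were corrected for input abundance and mapped to Kd with protein pairs of known affinity run in the same pool. Mating was done three times.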

Parent scFv Ab-14: VH joined to VL by the linker GGGGSGGGGSGGGGS. Changes lie in the heavy chain CDRs alone.
VH: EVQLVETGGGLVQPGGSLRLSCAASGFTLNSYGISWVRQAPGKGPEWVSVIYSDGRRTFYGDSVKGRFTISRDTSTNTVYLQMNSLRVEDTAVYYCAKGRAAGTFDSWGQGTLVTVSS
VL: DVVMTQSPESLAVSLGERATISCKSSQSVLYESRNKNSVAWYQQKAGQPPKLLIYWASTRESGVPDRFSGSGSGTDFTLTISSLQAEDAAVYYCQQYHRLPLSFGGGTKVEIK

Each variant is given by its three heavy chain CDRs, as the data file delimits them; those of the parent are GFTLNSYGIS, VIYSDGRRTFYGDSVK, GRAAGTFDS. Affinities are written as log10 Kd with Kd in nM; a lower number is a better binder. Where no diploid with the target was found in that replicate, the entry reads "n.d.": below detection, most likely a poor binder, though not proof of it. Background: pairings of library AAYL49 with three empty control strains gave a value in 15% of cases (median 4.06, 5th percentile 2.83). Values in that range, when seen in few replicates, are hard to tell from nonspecific mating. For each scFv, signals with the empty controls are counted beside the result, with their mean in brackets.

CDR-H1	CDR-H2	CDR-H3	log10 Kd, replicates	signal with controls
GFELNSYGIS	VIYSDGRRTFYGDSVK	GPAAGTFDS	n.d. / n.d. / n.d.	1/9 (2.56)
GFTLNSYGIS	VKYSDGRRTFYGDSVK	GRAVPTFDS	n.d. / 3.99 / n.d.	0/9
GFTLHGYGIS	VIYKDGRRTFYGDSVK	GRAAGTFDS	n.d. / n.d. / n.d.	1/9 (3.32)
IFTLNSYGNS	VIYSDGRRTFYGDSVK	GREAGTFDS	n.d. / 3.73 / 4.56	0/9
GFTANSYGIS	VIYSDGRRTEYGDSVK	GRGAGTFDS	n.d. / 4.41 / n.d.	0/9
GFTLNGYGIS	VIYSDGRRTFYGDSVK	GRAAGTMHS	n.d. / n.d. / n.d.	4/9 (4.20)
GFTLNSTGIS	VIYSDGRRTAYGESVK	GRAAGTFDS	3.84 / 3.39 / n.d.	2/9 (4.14)
GFTLNSYGVS	VIYADGRRTFYGDKVK	GRAAGTFDS	4.45 / n.d. / n.d.	0/9
GFTLNSYGIS	VIYSDGERTFYGDHVK	SRAAGTFDS	4.15 / 3.17 / n.d.	1/9 (3.56)
GFTLNSYGIT	VIMSDGRRTFGGDSVK	GRAAGTFDS	n.d. / n.d. / n.d.	1/9 (3.65)
GFTLNKYGIS	VIYPDGRRTFYGDSVK	GRAAGTFKS	n.d. / n.d. / n.d.	1/9 (3.83)
GFTLNSYGIS	VIVSDGRRTFYGDSVI	GRAAGTFLS	n.d. / n.d. / n.d.	1/9 (4.36)
GFTLNSYGIS	VIYSDGRRTFYGDSVK	GRQKGTFWS	3.23 / n.d. / n.d.	0/9
GSTLNSYGTS	VIYSDGRRTFYGDSVK	GRAAGTFES	n.d. / n.d. / n.d.	0/9
GFTLNSYGIS	VIYSDARRTFYGDIVK	GRARGTFDS	n.d. / 4.44 / n.d.	2/9 (3.52)
GFTLNSYGIS	VIYSDGRRAFYADSVI	GRAAGTFDS	0.21 / 0.77 / 1.43	0/9
GFTLNSYGIS	VIYSDGRRTFYGDSVL	GRAAVTFDS	n.d. / n.d. / n.d.	0/9
GFTLGSYGIS	VIYSDGRRTFYEDSVK	GRAAGLFDS	4.12 / 4.19 / 3.86	4/9 (4.41)
GFTLNSYGIS	VIYSDGRRTFYHDSVK	GTANGTFDS	n.d. / n.d. / n.d.	0/9
GFTLNSYGIS	VIYHDGRRTFYGDSVK	GRPAGTFDS	2.63 / n.d. / n.d.	0/9
GFTLNSYGIS	VIYSDGRRTFQGDSLK	GRAAGTFDS	4.12 / n.d. / n.d.	1/9 (4.34)
GFTTNSYGIS	VIYKDGRRTFYGDSVK	GRAAGTFDS	3.85 / 4.07 / n.d.	4/9 (4.84)
GFTLNSYGIS	VYYSDGRRTFYGESVK	GRHAGTFDS	n.d. / n.d. / n.d.	0/9
GFTLNYYGIS	VIMSDGRLTFYGDSVK	GRAAGTFDS	n.d. / n.d. / n.d.	3/9 (3.94)
GPELNSYGIS	VIYSDGRRTFYGDSVD	GRAAGTFDS	2.57 / 2.14 / 4.61	1/9 (3.06)
GFTENSYGII	VIYSDGRRTFYGDSVK	GRAAGDFDS	n.d. / 5.34 / 4.67	4/9 (3.90)
GFTLNSYGIS	VIYSDGRRTFYGCSVK	GRLAGTTDS	n.d. / 3.09 / n.d.	0/9
VFTLHSYGIS	VIYSDGRRGFYGDSVK	GRAAGTFDS	n.d. / n.d. / n.d.	3/9 (4.18)
GFHLNSYGIS	VIYSDGRRTFYGDSYR	GRAAGTFDS	2.59 / 2.26 / 2.41	2/9 (4.77)
GFTLNSYGIS	VIYSDGRRTFYGDSVK	GQATGTFDG	0.50 / 0.71 / 0.57	0/9
GTTLNSYGIS	VRYSDGRRTFYGDSVK	GRAAETFDS	n.d. / n.d. / n.d.	0/9
IFTLNSYGIS	VIESDGRRTFCGDSVK	GRAAGTFDS	4.58 / n.d. / 2.68	4/9 (3.56)
GYTLNSYGIL	VIYSDGRRTFYGDSVK	LRAAGTFDS	n.d. / 4.12 / n.d.	3/9 (4.09)
GPTLNSDGIS	VIYSDGRRTFYGDSEK	GRAAGTFDS	n.d. / n.d. / n.d.	0/9
GFTLNSYGIS	VIYSDGRRTFYGDSVQ	GLAAGTFFS	n.d. / n.d. / n.d.	0/9
GFTLNSYGIS	VIYSDGRRTEYKDSVK	GRAEGTFDS	n.d. / n.d. / n.d.	0/9
GFTLNSYGIS	VIYSDGQRTFYADSVK	GRAAGTNDS	1.24 / 1.90 / 1.47	1/9 (2.64)
GFTLNSYGIS	VIYSDGRRTWAGDSMK	GRAAGTFDS	n.d. / n.d. / n.d.	0/9
GFTLNSYGIY	LIYSDGRMTFYGDSVK	GRAAGTFDS	n.d. / 4.60 / n.d.	2/9 (3.81)

A selection of 6 entries from above:

CDR-H1	CDR-H2	CDR-H3	log10 Kd, replicates	signal with controls
GFTLGSYGIS	VIYSDGRRTFYEDSVK	GRAAGLFDS	4.12 / 4.19 / 3.86	4/9 (4.41)
VFTLHSYGIS	VIYSDGRRGFYGDSVK	GRAAGTFDS	n.d. / n.d. / n.d.	3/9 (4.18)
GFTLNSYGIS	VYYSDGRRTFYGESVK	GRHAGTFDS	n.d. / n.d. / n.d.	0/9
GFTLNSYGIS	VIYSDGRRTFYGCSVK	GRLAGTTDS	n.d. / 3.09 / n.d.	0/9
IFTLNSYGNS	VIYSDGRRTFYGDSVK	GREAGTFDS	n.d. / 3.73 / 4.56	0/9
GFTLNSYGIY	LIYSDGRMTFYGDSVK	GRAAGTFDS	n.d. / 4.60 / n.d.	2/9 (3.81)